# Yeast mating assay B: variants of the scFv Ab-14

From the AlphaSeq antibody data of Li et al. 2023 (doi:10.1038/s41467-023-39022-2), copy in the FLAb collection.

All variants were tested on one target, the spike HR2 peptide PDVDLGDISGINAS (SARS-CoV-2).

Parent: Ab-14, a human scFv built as VH, a (GGGGS)3 linker, VL. Only the CDRs of the light chain vary.
VH: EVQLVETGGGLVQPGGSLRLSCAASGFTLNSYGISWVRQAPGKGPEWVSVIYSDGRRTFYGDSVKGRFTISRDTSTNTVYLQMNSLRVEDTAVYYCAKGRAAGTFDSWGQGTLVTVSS
VL: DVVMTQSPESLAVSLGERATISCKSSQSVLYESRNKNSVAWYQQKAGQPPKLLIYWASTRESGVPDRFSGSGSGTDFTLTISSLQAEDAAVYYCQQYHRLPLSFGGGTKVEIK

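Phage display of a naive human antibody library on the peptide gave the parent. These sequences belong to a second round, designed from the earlier measurements on random variants of the parent. Several design methods are mixed in this list. AlphaSeq pools MATa yeast showing the antibodies with MATalpha yeast showing the peptide. Pairs that bind mate more often; barcode pairs of the diploids are counted by sequencing. Read counts were normalised to the haploid input and turned into Kd by a linear fit to BCL2-family pairs of known affinity, for each replicate. Mating was done six times.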

The parent's light chain CDRs are KSSQSVLYESRNKNSVA, WASTRES, QQYHRLPLS; each variant's own CDRs replace them letter for letter.
This list holds designs with more than six substitutions.
Scale: log10 of Kd in nM, estimated from mating counts; low values are strong binders.
A mean of the replicates is given; it leaves out those without a signal.
"nd" marks a missing value. The strain was present, yet no cells mated with the target were sequenced in that replicate, which points to weak or no binding.
A sequence measured in both rounds can read differently, since the two assays cover different ranges.

CDR-L1	CDR-L2	CDR-L3	replicates, log10 nM	mean, log10 nM	signal with controls
IISQSVLGGYHNSNSVA	QTSERGQ	QQYDRLPLS	1.43 0.74 0.80 0.71 0.44 0.49	0.77	0 of 18
KISCSVYYGDRNKMSVA	DASQRES	QQYHRLPLS	0.58 0.39 0.47 0.95 0.22 0.72	0.56	0 of 18
MVSQLMVWGLHTKNSIA	EAQTRIN	QQYDRLPLF	nd nd nd 1.42 nd nd	1.42	0 of 18
KIMQSLNYESFQKNSVA	GQETRER	QSYHRLPLS	0.75 0.85 0.82 0.71 1.11 0.92	0.86	1 of 18 (2.37)
QIDSFYQHGTDQNQAMA	DVTMRDQ	QQYSRLPLS	0.56 0.59 0.31 0.38 0.44 0.99	0.54	0 of 18
KMSQSAPMESRNWNSVA	NASKRES	QQYHRLPLS	2.00 nd 1.42 2.04 1.07 0.77	1.46	0 of 18
KLTMITGLEKVQKNNVA	EMETREK	QQYNRLPLS	0.15 0.03 -0.23 0.33 -0.14 0.17	0.05	0 of 18
KLMTSDLYESRMKNAVA	DASTRMD	QQYHRLPLS	0.24 0.17 0.14 0.03 0.08 0.27	0.15	0 of 18
KLSQSMLYESRNKNNVA	EAHQRES	QMYHRLPLS	1.77 1.39 0.29 0.67 0.53 1.53	1.03	0 of 18
KLSMSYRMETEEKNSIA	ELVTRMS	QQYHRLPLS	nd nd nd nd nd nd	nd	0 of 18
TLTQVQGMESHNKNSVA	DLSLRGS	QQYHRLPLS	0.36 0.19 0.43 0.17 0.12 0.41	0.28	0 of 18
KVTTNLEHQADRKNSIA	EADMVAA	QDYMRLPLI	1.96 1.97 2.84 1.80 2.07 1.70	2.06	0 of 18
KLYQNVGTMSVNKQSIA	DMERRED	QQYHRLPLS	0.55 0.59 0.23 -0.09 0.33 0.56	0.36	0 of 18
TISQMFLGESRNRNSVA	QASTRFS	QSYDRLPLS	1.24 1.00 0.80 0.85 0.90 1.21	1.00	1 of 18 (2.92)
IITQSVMSESKNKRNVA	NTSERMD	QQYDRLPLI	0.36 0.54 0.29 0.32 0.25 0.43	0.36	1 of 18 (2.34)
QFEFTEEEGYQYSNNIA	NGEQRFS	QQYVKLPLV	0.61 0.57 0.73 0.50 0.75 0.95	0.69	0 of 18
MVSQLMVWGLHAKNSIA	EAEHRCN	QQYDRLPLF	nd nd nd nd nd nd	nd	0 of 18
KLSASTRMESRNKASVA	ENSTRES	QQYFRLPLS	1.03 0.63 0.79 0.43 0.40 0.95	0.71	4 of 18 (3.51)
IVSQLMLWGYHAKNSIA	EAEMRLN	QQYDRLPLF	nd 1.68 3.48 nd nd nd	2.58	0 of 18
NLSMSAATFVNESSSIA	NAEQTYD	QQYHELPLV	1.46 2.39 2.48 2.13 1.47 2.32	2.04	0 of 18
MMSSLMGYESRHINNVA	QTTTRES	QQYDRLPLM	0.48 0.67 0.10 0.16 -0.02 0.56	0.33	0 of 18
HITMGMYVMGRHNSSIA	QAETRAK	QQYDRLPLI	1.78 2.24 1.97 3.11 1.99 2.18	2.21	1 of 18 (3.27)
KLSISHNVESISKSNVA	EMVTRES	QQYDRLPLS	0.71 0.93 0.47 0.55 0.58 0.78	0.67	1 of 18 (2.70)
KISMTTEMELKNRNSVA	ELVTRLN	QQYNRLPLS	0.48 0.86 0.79 0.71 1.05 0.90	0.80	1 of 18 (2.62)
KLSMITGHMSVSKNNVA	EMETREN	QQYDRLPLS	0.47 0.55 0.84 0.21 0.70 0.50	0.54	1 of 18 (3.00)
MISQLYNMGTFAINSVA	QASLRNE	QQYDRLPLT	nd nd nd 2.27 nd nd	2.27	0 of 18
KLTMITGLEKVSTNNVA	EMETREV	QQYNRLPLS	2.20 1.59 1.21 1.16 0.97 1.75	1.48	1 of 18 (2.32)
KMSQSEDYEDRNCNAVA	SASQREE	QQYHRLPLS	0.30 0.24 0.25 0.00 0.28 0.32	0.23	0 of 18
HMKDEPGLGPQTYHSVA	HASILEP	QQYYRLPLM	0.52 0.48 0.30 0.21 0.54 0.62	0.44	1 of 18 (2.96)
KLEWSQLYWSRNSNSVA	NASTREE	QQYHRLPLS	-0.28 -0.42 -0.35 -0.53 -0.43 -0.33	-0.39	0 of 18
KLSQQNPYESRMMNSVA	NASQRES	QQYHRLPLS	0.31 0.13 -0.05 0.21 0.14 0.15	0.15	1 of 18 (3.88)
KAQQSELYEKRNQNSVA	SASQRLS	QQYHRLPLS	0.19 0.17 0.54 0.26 0.32 0.27	0.29	0 of 18
HMSESEHGHNAGVGNMA	NATESTE	QQYMHLPLS	0.51 0.88 0.50 0.53 0.32 0.52	0.54	1 of 18 (2.45)
KIGMTLNQLQEKKNNVA	DLVHREN	QQYHRLPLS	-0.03 -0.11 -0.13 -0.33 0.12 -0.11	-0.10	0 of 18
TISQMFLGESRIRNSVA	QASTRES	QSYDRLPLS	0.42 0.09 0.22 0.07 -0.10 0.20	0.15	0 of 18
KQQQLGLGEERNFNSVA	HASTRIS	QQYHRLPLS	1.04 0.74 0.95 0.97 0.50 1.19	0.90	0 of 18
TIGGTLMYGSRNRSNVA	EVSERLN	QQYDRLPLL	3.26 1.40 1.74 1.23 1.25 1.50	1.73	0 of 18
MMTMFPNEPTGDSSNIA	DTNQLNT	QQYQRLPLM	0.63 0.80 0.62 0.54 0.66 0.60	0.64	1 of 18 (2.71)
KLVNFMNRGTHHTSNIA	DAANRID	QQYARLPLA	0.24 0.25 0.26 0.18 0.11 0.30	0.22	3 of 18 (3.42)
KLSMTTEMEHKNRNSVA	ELVTRMS	QQYNRLPLS	0.52 0.77 0.49 0.42 0.59 0.68	0.58	0 of 18
KVSWLHWYWSRNKNSVA	EASTREQ	QQYHRLPLS	1.69 1.66 0.77 0.92 0.95 1.51	1.25	2 of 18 (2.36)
KSSAEVTIESDNCNSVA	SASTRES	QQYHRLPLS	nd 1.37 nd nd nd 1.08	1.23	1 of 18 (1.67)
KMSQVYGYESTNSNSVA	DASTRED	QQYHRLPLS	0.19 0.24 0.36 -0.12 -0.07 0.02	0.10	0 of 18

Excerpt, the final 6 entries:

| CDR-L1 | CDR-L2 | CDR-L3 | replicates, log10 nM | mean, log10 nM | signal with controls |
|---|---|---|---|---|---|
| MMTMFPNEPTGDSSNIA | DTNQLNT | QQYQRLPLM | 0.63 0.80 0.62 0.54 0.66 0.60 | 0.64 | 1 of 18 (2.71) |
| KLVNFMNRGTHHTSNIA | DAANRID | QQYARLPLA | 0.24 0.25 0.26 0.18 0.11 0.30 | 0.22 | 3 of 18 (3.42) |
| KLSMTTEMEHKNRNSVA | ELVTRMS | QQYNRLPLS | 0.52 0.77 0.49 0.42 0.59 0.68 | 0.58 | 0 of 18 |
| KVSWLHWYWSRNKNSVA | EASTREQ | QQYHRLPLS | 1.69 1.66 0.77 0.92 0.95 1.51 | 1.25 | 2 of 18 (2.36) |
| KSSAEVTIESDNCNSVA | SASTRES | QQYHRLPLS | nd 1.37 nd nd nd 1.08 | 1.23 | 1 of 18 (1.67) |
| KMSQVYGYESTNSNSVA | DASTRED | QQYHRLPLS | 0.19 0.24 0.36 -0.12 -0.07 0.02 | 0.10 | 0 of 18 |

Of ten entries with the parent sequence, four were seen in most replicates (averages 0.34 to 2.37), three in one and three in none, so single entries are noisy.
Nonspecific signal, from three strains lacking the peptide, appeared in 4% of pairings of all light chain designs, centred on 2.64 (5% of these signals below 1.59); values are not corrected for it. For each scFv, signals with the empty controls are counted beside the result, with their mean in brackets.
The authors averaged sequences with at least three values out of six and counted those with two or fewer as poor binders.